From patent publication US7202046B2, “Use of a fluorescent protein for detecting interaction between a target protein and its ligand” (priority 1997, dated 2007)
Several values for one entry are separate records, joined by “and”; a condition that tells them apart may be missing. Identical values can stand only once.

The chains behind the UniProt entries cited, without tags or fusion partners.
UniProt P16610, whole entry: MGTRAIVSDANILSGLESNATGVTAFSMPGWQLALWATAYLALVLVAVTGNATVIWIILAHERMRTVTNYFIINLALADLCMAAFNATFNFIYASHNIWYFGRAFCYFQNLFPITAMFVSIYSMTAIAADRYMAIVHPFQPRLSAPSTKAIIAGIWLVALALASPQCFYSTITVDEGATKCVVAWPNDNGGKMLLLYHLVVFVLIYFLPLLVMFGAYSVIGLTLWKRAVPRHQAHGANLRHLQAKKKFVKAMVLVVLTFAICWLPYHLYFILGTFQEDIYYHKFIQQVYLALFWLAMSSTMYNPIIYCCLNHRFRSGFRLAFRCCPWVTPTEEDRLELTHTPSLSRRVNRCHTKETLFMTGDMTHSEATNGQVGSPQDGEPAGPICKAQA

Biological target: T1, wild-type NK2R receptor (Rattus norvegicus, UniProt P16610)
T1 construct: expressed in transfected cells; host or cells: HEK 293 cells, construct pCEP4-NK2R
Experiment: Displacement of 3H SR 48968 binding (competition experiment), HEK 293 cells expressing wild-type NK2R
Details: read-out: KI, displacement of 3H SR 48968; 1 nM 3H SR 48968, 25,000 cells, 4° C.
Protocol: The curves for the displacement of the binding of ^3HSR 48968 with a non-radioactive ligand are carried out in 10 mM Hepes, 137.5 mM NaCl, 1.25 mM MgCl2, 1.25 mM CaCl2, 6 mM KCl, 5.6 mM glucose, 0.4 mM NaH2PO4, 0.1% (w/v) BSA, pH 7.4 buffer at 4° C. for 1 h 30 min. in the presence or absence of NKA at 1 μM final. Each 500 μl sample contains 25,000 cells, 1 nM 3HSR 48968 and a non-radioactive ligand at various concentrations (from 1 nM to 10 μM). The incubation is carried out for one hour at 4° C. Filtration is carried out at the end of incubation, as described in 3b).

Substance: neurokinin A [NKA]
- Ki: 3.03 nM and 3 nM
